From paper PMC3349770 (Journal of Medicinal Chemistry, 2012)

Target: T1, C3aR (Homo sapiens, UniProt Q16581)
T1 sequence (Q16581 1-482): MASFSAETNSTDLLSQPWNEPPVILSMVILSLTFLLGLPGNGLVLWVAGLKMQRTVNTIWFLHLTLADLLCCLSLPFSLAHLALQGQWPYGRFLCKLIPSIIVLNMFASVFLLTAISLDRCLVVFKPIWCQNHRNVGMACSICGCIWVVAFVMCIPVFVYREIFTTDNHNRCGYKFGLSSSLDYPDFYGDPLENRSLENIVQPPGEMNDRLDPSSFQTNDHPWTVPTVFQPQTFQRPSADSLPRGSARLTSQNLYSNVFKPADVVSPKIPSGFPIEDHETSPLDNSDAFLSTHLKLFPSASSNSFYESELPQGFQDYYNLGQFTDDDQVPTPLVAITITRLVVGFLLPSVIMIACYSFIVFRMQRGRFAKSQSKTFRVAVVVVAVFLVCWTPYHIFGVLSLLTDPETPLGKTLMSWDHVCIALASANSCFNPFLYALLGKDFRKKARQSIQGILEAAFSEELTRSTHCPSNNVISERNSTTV
Experiment: Calcium flux assay in dbcAMP differentiated U937 cells, agonist mode
Assay type: cell-based

EC50: 2000 nM
Structure (SMILES): CC(=O)N[C@@H](Cc1c[nH]c2ccccc12)C(=O)N[C@@H](Cc1c[nH]c2ccccc12)C(=O)N[C@@H](CC(=O)O)C(=O)N[C@@H](CCCNC(=N)N)C(=O)N[C@@H](CCCNC(=N)N)C(=O)N[C@@H](Cc1c[nH]c2ccccc12)C(=O)N[C@@H](CCCNC(=N)N)C(=O)N[C@@H](C)C(=O)N[C@@H](CO)C(=O)N[C@@H](CCCCN)C(=O)N[C@@H](CC(C)C)C(=O)NCC(=O)N[C@@H](CC(C)C)C(=O)N[C@@H](C)C(=O)N[C@@H](CCCNC(=N)N)C(=O)O [SQ007-5, WWDRRWRASKLGLAR]
